Experimental findings from article PMC6204840 are described below.

Amino acid sequences for entries named in this document (tags omitted). Residues count along the entry.
UniProt P02745, 23-245: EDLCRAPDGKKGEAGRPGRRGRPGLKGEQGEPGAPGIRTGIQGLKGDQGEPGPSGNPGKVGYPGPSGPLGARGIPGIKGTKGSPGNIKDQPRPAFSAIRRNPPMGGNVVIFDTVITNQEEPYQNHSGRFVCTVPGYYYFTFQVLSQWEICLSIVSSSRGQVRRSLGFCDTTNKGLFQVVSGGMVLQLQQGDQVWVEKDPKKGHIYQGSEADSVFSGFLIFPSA
Purified C1q, UniProt P02746, 28-253: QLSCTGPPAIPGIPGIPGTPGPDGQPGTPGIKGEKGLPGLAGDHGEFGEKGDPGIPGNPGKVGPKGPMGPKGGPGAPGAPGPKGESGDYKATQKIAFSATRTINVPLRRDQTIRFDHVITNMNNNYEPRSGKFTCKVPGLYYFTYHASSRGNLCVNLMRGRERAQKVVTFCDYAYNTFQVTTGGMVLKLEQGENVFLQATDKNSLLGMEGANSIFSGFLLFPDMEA
Purified C1q, UniProt P02747, 29-245: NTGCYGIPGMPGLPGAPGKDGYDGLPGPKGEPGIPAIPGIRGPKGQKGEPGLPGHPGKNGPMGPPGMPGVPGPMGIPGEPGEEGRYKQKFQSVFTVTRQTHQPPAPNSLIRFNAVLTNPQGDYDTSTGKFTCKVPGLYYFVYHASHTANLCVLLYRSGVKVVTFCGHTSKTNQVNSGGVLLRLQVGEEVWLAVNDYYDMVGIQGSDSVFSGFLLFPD

Common to all, as to assay: ELISA
Background: ELISA stands for enzyme-linked immunosorbent assay.

In experiment [1] the target is rituximab IgG1 with Fc variant DF197 (human).
Experiment [2] addresses rituximab IgG1 with Fc variant DF213 (human).
Experiment [3] has as its target rituximab IgG1 with Fc variant DF228 (human).
The target of experiment [4] is rituximab IgG1 with Fc variant YTE (human).
For experiment [5], the target named is rituximab IgG1 with Fc variant LS (human).
The target in experiment [6] is rituximab IgG1 with Fc variant DF215 (human).
Experiment [7] has as its target rituximab IgG1 with wild type Fc (human).
In experiment [8] the target is rituximab IgG1 with Fc variant DF183 (human).

Consider “Purified C1q (from UniProt P02745 23-245; P02746 28-253; P02747 29-245) (complex)”, for which the concentration for a half-maximal effect (EC50) – broadly, the concentration at which the effect is half-maximal – in experiment [1] was determined as 46.2 nM; in experiment [2] it was 20.6 nM; in experiment [3] it was 20.9 nM; in experiment [4], 21.5 nM; in experiment [5], 21.4 nM; in experiment [6], 21.9 nM. The figures for the EC50 in experiment [7] and in experiment [8] were 22.6 nM and 16.5 nM, respectively.
